ChEMBL document CHEMBL1153145, “Novel lead for potent inhibitors of breast cancer resistance protein (BCRP)” (Bioorg Med Chem Lett, 2010)

Sequences of proteins named here, by UniProt entry; tags and fusion partners are left off. A change or cut given only in a name is not applied to a line headed by its entry.
UniProt Q9UNQ0: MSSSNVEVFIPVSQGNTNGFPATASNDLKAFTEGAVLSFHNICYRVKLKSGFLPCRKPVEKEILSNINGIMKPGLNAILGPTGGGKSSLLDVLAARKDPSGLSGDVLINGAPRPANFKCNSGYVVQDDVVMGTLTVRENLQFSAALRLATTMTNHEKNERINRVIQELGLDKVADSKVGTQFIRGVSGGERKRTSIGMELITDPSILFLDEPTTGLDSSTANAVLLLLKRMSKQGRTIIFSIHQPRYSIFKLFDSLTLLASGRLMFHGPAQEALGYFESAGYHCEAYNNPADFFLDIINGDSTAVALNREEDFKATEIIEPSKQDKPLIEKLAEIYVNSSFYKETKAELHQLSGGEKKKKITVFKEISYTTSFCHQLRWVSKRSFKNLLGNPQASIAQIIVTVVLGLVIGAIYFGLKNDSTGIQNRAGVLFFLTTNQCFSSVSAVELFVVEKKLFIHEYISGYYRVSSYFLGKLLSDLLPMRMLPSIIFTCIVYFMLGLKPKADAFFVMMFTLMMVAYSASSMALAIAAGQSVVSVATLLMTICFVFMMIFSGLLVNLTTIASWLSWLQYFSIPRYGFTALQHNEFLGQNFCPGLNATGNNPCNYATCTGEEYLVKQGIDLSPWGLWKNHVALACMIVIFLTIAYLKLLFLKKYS

Legend:
[1] = biological target: T1, Broad substrate specificity ATP-binding cassette transporter ABCG2 (Homo sapiens, UniProt Q9UNQ0); experiment: Inhibition of BCRP expressed in MCF7 MX cells by Hoechst 33342 staining; format: cell-based
[2] = biological target: T1, Broad substrate specificity ATP-binding cassette transporter ABCG2; experiment: Inhibition of BCRP expressed in MDCK cells by pheophorbide A assay; format: cell-based

COc1cc2ncnc(Nc3ccc(F)c(Cl)c3)c2cc1OCCCN1CCOCC1 [GEFITINIB]
IC50 [1]: 1.1 µM | IC50 [2]: 1.26 µM
